Test results as given in ChEMBL document CHEMBL1129127, “Potent and selective PKC inhibitory 5-membered ring analogs of balanol with replacement of the carboxamide moiety” (Bioorg Med Chem Lett, 1996).

Target: T1, Protein kinase C epsilon type (Homo sapiens, UniProt Q02156)
T1 sequence (Q02156 whole entry): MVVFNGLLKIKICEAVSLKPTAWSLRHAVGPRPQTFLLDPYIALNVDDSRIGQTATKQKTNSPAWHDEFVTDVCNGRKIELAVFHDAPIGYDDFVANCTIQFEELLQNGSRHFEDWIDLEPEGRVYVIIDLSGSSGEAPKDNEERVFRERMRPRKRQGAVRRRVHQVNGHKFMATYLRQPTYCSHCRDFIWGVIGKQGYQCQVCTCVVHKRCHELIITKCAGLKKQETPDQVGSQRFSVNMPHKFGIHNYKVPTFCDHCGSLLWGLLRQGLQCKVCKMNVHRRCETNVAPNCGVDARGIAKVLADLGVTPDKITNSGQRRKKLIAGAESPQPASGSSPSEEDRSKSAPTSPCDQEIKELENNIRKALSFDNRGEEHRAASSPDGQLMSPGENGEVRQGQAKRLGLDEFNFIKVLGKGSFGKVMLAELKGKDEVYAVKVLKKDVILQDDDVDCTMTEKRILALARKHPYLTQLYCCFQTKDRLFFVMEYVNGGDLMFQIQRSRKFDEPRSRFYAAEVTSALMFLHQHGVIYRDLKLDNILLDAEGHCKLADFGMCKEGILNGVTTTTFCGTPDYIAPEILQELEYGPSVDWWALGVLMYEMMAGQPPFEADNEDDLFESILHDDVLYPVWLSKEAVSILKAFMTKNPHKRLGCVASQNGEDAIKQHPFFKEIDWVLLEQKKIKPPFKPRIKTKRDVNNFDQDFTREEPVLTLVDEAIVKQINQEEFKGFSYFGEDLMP
Assay: Inhibition of protein kinase C epsilon

O=C(NC1CNCCCC1OC(=O)c1cc(O)c(C(=O)c2c(O)cccc2C(=O)O)c(O)c1)c1ccc(O)cc1 (single isomer, unassigned; (-))
IC50: 20 nM
